Measurements published in ChEMBL document CHEMBL1123192, “Indole-phenol bioisosterism. Synthesis and antihypertensive activity of a pyrrolo analogue of labetalol” (J Med Chem, 1986).

The chains behind the UniProt entries cited, without tags or fusion partners. Where a name states a change or a piece, a line headed by the entry shows the natural chain unless it says otherwise.
UniProt P35348: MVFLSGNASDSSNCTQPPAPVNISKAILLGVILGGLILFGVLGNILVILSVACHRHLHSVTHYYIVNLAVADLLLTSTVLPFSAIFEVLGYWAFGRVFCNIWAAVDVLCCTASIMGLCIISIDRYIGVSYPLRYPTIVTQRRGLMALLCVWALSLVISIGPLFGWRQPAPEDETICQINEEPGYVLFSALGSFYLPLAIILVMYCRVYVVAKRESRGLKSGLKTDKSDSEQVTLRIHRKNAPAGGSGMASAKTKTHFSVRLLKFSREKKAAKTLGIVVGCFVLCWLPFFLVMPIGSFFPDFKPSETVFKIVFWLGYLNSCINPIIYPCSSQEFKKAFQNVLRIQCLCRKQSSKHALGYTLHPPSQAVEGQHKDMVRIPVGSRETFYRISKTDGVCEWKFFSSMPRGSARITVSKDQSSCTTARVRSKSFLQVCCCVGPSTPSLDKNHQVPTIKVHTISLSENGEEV
UniProt P25100: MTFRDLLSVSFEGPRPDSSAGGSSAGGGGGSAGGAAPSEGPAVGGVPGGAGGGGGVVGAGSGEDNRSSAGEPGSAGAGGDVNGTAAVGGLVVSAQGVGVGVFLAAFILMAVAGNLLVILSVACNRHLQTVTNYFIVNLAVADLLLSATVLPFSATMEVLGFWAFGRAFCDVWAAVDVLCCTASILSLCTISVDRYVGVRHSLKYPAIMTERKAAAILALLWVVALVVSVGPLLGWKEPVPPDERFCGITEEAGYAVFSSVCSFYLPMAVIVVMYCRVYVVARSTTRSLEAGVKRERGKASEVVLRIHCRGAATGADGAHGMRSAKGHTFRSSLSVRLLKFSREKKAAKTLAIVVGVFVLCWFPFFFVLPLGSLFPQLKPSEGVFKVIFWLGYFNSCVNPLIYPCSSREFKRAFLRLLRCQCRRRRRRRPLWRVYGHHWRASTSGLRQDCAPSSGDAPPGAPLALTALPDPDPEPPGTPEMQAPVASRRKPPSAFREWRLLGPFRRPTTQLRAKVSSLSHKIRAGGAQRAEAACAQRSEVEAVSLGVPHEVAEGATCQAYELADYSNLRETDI
UniProt P35368: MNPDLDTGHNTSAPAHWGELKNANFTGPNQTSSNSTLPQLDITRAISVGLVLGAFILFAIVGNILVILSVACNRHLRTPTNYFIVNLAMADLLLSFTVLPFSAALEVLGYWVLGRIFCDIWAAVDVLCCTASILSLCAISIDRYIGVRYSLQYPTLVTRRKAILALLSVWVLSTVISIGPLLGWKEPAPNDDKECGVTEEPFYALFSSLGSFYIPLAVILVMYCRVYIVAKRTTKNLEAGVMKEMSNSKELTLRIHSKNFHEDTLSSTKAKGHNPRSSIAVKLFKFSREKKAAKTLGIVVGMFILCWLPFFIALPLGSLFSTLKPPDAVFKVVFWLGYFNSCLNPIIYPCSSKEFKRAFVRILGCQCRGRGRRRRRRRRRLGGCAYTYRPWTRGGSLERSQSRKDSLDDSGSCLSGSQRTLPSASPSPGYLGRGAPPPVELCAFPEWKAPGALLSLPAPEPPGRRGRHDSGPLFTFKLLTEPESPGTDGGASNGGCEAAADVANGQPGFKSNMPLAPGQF

Biological target: Adrenergic receptor alpha-1 (Homo sapiens, UniProt P35348+P25100+P35368)
Experiment: The compound was evaluated for the antagonistic activity against alpha-1 adrenergic receptor.
Assay type: functional, Oryctolagus cuniculus

- pA2: 6.8
Structure (SMILES): CC(CCc1ccccc1)NCC(O)c1ccc(O)c(C(N)=O)c1 (stereo unspecified) [LABETALOL]
